These are literature values, as cited in publication PMC12206923.

The chains behind the UniProt entries cited, without tags or fusion partners. Residues count along the entry.
UniProt P01589, 22-240, chain 1 of 3: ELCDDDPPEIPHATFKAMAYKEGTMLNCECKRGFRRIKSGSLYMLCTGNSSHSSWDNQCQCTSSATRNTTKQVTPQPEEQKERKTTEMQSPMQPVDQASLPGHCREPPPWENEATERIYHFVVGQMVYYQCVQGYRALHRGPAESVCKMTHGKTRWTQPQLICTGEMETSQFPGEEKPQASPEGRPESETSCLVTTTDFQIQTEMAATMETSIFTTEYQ
UniProt P60568, 21-153: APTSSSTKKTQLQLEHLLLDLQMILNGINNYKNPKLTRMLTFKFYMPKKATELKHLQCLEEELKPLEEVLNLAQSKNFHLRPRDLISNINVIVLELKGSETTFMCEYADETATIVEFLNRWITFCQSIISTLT

The series addresses trimeric IL-2 receptor (Homo sapiens) (UniProt P01589).

The term Kd denotes a measure of binding affinity in units of concentration. In the case of IL-2 (from UniProt P60568), the Kd was 0.01 nM.
